Measured values published in ChEMBL document CHEMBL1133817, “Discovery of novel, orally active dual NK1/NK2 antagonists” (Bioorg Med Chem Lett, 2001).

Protein sequences, listed by entry. Tags and fused reporters are not part of them.
UniProt Q64077, whole entry: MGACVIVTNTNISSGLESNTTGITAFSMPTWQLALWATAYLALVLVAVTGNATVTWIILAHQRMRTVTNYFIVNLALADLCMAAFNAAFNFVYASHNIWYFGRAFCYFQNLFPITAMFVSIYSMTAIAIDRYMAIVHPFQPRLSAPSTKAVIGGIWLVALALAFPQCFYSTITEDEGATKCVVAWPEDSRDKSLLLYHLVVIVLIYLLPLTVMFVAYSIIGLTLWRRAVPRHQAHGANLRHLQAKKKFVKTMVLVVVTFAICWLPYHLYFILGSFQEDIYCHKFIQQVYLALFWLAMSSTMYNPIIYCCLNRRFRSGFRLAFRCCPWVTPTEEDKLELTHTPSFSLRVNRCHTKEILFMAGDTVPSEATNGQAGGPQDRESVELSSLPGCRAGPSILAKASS
UniProt P30547, whole entry: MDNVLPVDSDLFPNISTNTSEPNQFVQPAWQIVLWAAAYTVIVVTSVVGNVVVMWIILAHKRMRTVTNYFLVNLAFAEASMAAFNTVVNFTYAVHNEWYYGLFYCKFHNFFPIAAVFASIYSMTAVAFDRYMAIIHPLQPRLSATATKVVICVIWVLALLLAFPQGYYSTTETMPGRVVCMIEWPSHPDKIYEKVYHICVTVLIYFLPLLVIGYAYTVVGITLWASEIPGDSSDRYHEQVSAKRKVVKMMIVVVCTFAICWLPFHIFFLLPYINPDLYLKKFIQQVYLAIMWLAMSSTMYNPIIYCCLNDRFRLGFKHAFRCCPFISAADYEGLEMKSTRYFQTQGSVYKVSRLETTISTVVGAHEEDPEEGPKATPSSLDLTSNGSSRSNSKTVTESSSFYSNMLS

Experiments:
[1] = biological target: Substance-K receptor (Cavia porcellus) (UniProt Q64077); assay: In vivo efficacy expressed as dose ratio for bronchoconstriction induced by BANK as agonist for NK2 receptor in anesthetized guinea pig at 30 uM/kg dose by oral administration; format: functional, organism-based
[2] = biological target: Substance-P receptor (Cavia porcellus) (UniProt P30547); assay: In vivo efficacy expressed as dose ratio for bronchoconstriction induced by ASMSP as agonist for NK1 receptor in anesthetized guinea pig; format: functional, organism-based

SMILES	Ratio [1]	Ratio [2]
CN(C[C@@H](CCN1CCC(c2ccccc2[S@+](C)[O-])CC1)c1ccc(Cl)c(Cl)c1)C(=O)c1cc(C#N)cc2ccccc12 (stereo in doubt)	18	23
COc1cc(C(=O)N2CC[C@](CCN3CCC(C(N)=O)(c4ccccc4)CC3)(c3ccc(Cl)c(Cl)c3)C2)cc(OC)c1OC	1	5
